According to PMC10257520 (Journal of medicinal chemistry, 2022):

Key:
[1] = tested on: NCI-H522 cells; settings: SAHA 5 μM
[2] = tested on: DU-145 cells; settings: single dose of 10 μM

SMILES | Cell death after one-day treatment [1] | Growth %, DU-145 [2]
O=C(CCCCCCC(=O)Nc1ccccc1)NO [SAHA] | about 30% | 
C#Cc1nc(C(=O)NCCCCCCC(=O)NO)cs1 [HY-1, 2-Ethynyl-N-(7-(hydroxyamino)-7-oxoheptyl)thiazole-4-carboxamide] |  | −51.12%
